## Ab-14 heavy chain CDR variants: yeast mating affinities

Antigen: PDVDLGDISGINAS, a 14-residue peptide of the SARS-CoV-2 spike HR2 region.

Parent: Ab-14, a human scFv built as VH, the linker GGGGSGGGGSGGGGS, VL. Only the CDRs of the heavy chain vary.
VH: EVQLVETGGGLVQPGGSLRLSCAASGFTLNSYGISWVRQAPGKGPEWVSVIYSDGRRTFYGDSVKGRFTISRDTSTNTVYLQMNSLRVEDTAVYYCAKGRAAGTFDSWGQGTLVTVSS
VL: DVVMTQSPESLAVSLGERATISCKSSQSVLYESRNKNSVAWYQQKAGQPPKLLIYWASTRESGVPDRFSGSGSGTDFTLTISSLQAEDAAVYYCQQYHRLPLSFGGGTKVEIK

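The starting antibody came from a phage panning campaign against this peptide. These sequences belong to a second round, designed from the earlier measurements on random variants of the parent. Several design methods are mixed in this list. The scFvs were displayed on barcoded MATa yeast, the peptide on MATalpha yeast. The frequency of each diploid, read from paired DNA barcodes, reflects how well the two displayed proteins bind. The ratio of observed to expected reads was calibrated, replicate by replicate, on BCL2-family standards whose Kd was known from biolayer interferometry. Mating was done six times.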

Each variant is given by its three heavy chain CDRs, as the data file delimits them; those of the parent are GFTLNSYGIS, VIYSDGRRTFYGDSVK, GRAAGTFDS.
Variants here have more than six changes.
Each Kd is an estimate from the mating assay, the geometric mean of the replicates in which the pair was seen; lower is stronger.
"no signal" marks a missing value. The strain was present, yet no cells mated with the target were sequenced in any replicate, which points to weak or no binding.
Background: pairings of all heavy chain designs with three empty control strains gave a value in 1% of cases (median 120 nM, 5th percentile 7.0 nM). Values in that range, when seen in few replicates, are hard to tell from nonspecific mating. Also given: how often the same scFv was detected with the empty control strains.

For GFDLNEYGIS | VIYADGTRTYYANSFK | GDYKVKNSI, the assay gave no signal (0 of 6 replicates; controls 0 of 18). With GFDLDEYGIS | VIYADGRRTAYSDSVK | GENAGTFDQ the result was 770 pM (6 of 6 replicates; controls 0 of 18). For GDVLDEYGIS | VIYADGRRTAYTQDVK | GDKAGSLSV, the assay gave no signal (0 of 6 replicates; controls 0 of 18). For GFSLDEYGIS | VIYADGARSFYTNKVK | GVTVGDNGT, the assay gave no signal (0 of 6 replicates; controls 1 of 18). For GFDLNEYGIS | VIYADGRRTFYADSVK | GENAGTFMS, the assay gave 11 nM (6 of 6 replicates; controls 0 of 18). For GFDLNEYGIS | VIYADGQRTFYADSVK | GNTAGTFDV, the assay gave 270 pM (6 of 6 replicates; controls 0 of 18).

For GQDLQEFGVS | VIYADGSRTAYADSFK | GQSAGNIVQ, the assay gave no signal (0 of 6 replicates; controls 0 of 18). The variant GFDLNEYGIS | VIYADGQRTAYADSVK | GQNAGTFDL showed 300 pM (6 of 6 replicates; controls 0 of 18). For GFDLNEYGIS | VIYADGRRTAYADDVK | GSNAGTFDI, the assay gave 530 pM (6 of 6 replicates; controls 0 of 18). With GFDLDEYGIS | VIYADGMRTAYTDSVK | GANAGTFDV the result was 570 pM (6 of 6 replicates; controls 0 of 18). With GFNLNEYGIS | VIYADGKRTFYADSVK | GEVAGTFDV the result was 300 pM (6 of 6 replicates; controls 0 of 18). The variant GFDLNEYGIS | VIYADGRRTFYVDSVK | GQVAGIFDV showed 200 nM (1 of 6 replicates; controls 1 of 18).

The variant GFDLEEMGVS | VIYHDGIRTAYKQKVK | GQFAGTFDL gave no signal (0 of 6 replicates; controls 0 of 18). For GFQLEEYGIS | VIYADGTRTAYLPTVK | GVNGGTFQM, the assay gave 78 nM (3 of 6 replicates; controls 0 of 18). For GFDLDEYGIS | VIYADGMRTAYADSVK | GNQAGTFDI, the assay gave 370 pM (6 of 6 replicates; controls 0 of 18). The variant GFDFQEYGIS | VIYADGQRAYYSDAVK | GNIGAIFSD showed no signal (0 of 6 replicates; controls 0 of 18). The variant GFDLDEYGIS | VIYADGVRTAYTDSVK | GNVAGTFDI gave 720 pM (6 of 6 replicates; controls 1 of 18). For GKDIEEYGIS | VIYADGMRQAYAESVK | GQVAGIGKF, the assay gave no signal (0 of 6 replicates; controls 0 of 18).

With GFDLNEYGIS | VIYADGMRTFYADDVK | GGNAGTFDV the result was 350 pM (6 of 6 replicates; controls 1 of 18). The variant GEVLDEYGIS | VIYADGQRVQYSDNVK | GLLFGVFDM gave no signal (0 of 6 replicates; controls 4 of 18). The variant GFSIDEYGIS | VIYADGMRTAYVESVK | GTIDENFTT showed 12 µM (1 of 6 replicates; controls 0 of 18). The variant GFDLEEYGIS | VIYADGMRTAYTDSVK | GNVAGTFDL showed 400 pM (6 of 6 replicates; controls 0 of 18). For GFDLDEYGIS | VIYADGSRTAYADDVK | GNVAGTFDL, the assay gave 540 pM (6 of 6 replicates; controls 0 of 18). For GFDLESYGIS | VIYADGRRTFYSDSVK | GENAGTFDV, the assay gave 1.5 nM (6 of 6 replicates; controls 2 of 18).

With GFDLESYGIS | VIYADGSRTAYADSVK | GNVAGTFDL the result was 220 pM (6 of 6 replicates; controls 0 of 18). For GFDLDEYGIS | VIYADGQRTAYADNVK | GEVAGTFDV, the assay gave 530 pM (6 of 6 replicates; controls 0 of 18). With GFSLDEYGIS | VIYADGRRTFYQDDVK | GNVAGTFDM the result was 310 pM (6 of 6 replicates; controls 0 of 18). The variant GFDLNEYGIS | VIYADGVRTAYSDSVK | GENAGTFDT showed 850 pM (6 of 6 replicates; controls 1 of 18). The variant GFDLNEYGIS | VIYADGRRTFYSDSVK | GNVGGTFDS showed 1.0 nM (6 of 6 replicates; controls 0 of 18). The variant GFDLDEYGIS | VIYADGKRTAYSDSVK | GENAGTFDV gave 3.0 nM (6 of 6 replicates; controls 0 of 18).

With GFDLNEYGIS | VIYADGKRTAYADNVK | GEVAGTFDT the result was 570 pM (6 of 6 replicates; controls 0 of 18). The variant GFDLNEYGIS | VIYADGMRTAYADDVK | GENAGTFVL gave 21 nM (6 of 6 replicates; controls 0 of 18). The variant GFHLDEFGIS | VIYADGSRSSYADDVK | GEGVNGFVI showed 9.0 µM (1 of 6 replicates; controls 1 of 18). For GFNLNEYGIS | VIYADGRRTFYADSVK | GQQAGTFDI, the assay gave 570 pM (6 of 6 replicates; controls 0 of 18). The variant GFDLNEYGIS | VIYADGQRKAYADSVK | GNQAGTFDV gave 190 pM (6 of 6 replicates; controls 0 of 18). The variant GFDLNEYGIS | VIYADGMRTAYADNVK | GNQAGTFDV showed no signal (0 of 6 replicates; controls 0 of 18).

The variant GFDLNEYGIS | VIYADGRRTFYADSVK | GNVAGTFFL showed 800 pM (6 of 6 replicates; controls 0 of 18). The variant GFDLNEYGIS | VIYADGLRTAYADSVK | GNVAGTFDL showed 160 pM (6 of 6 replicates; controls 1 of 18). The variant GKNLDEYGIS | VIYADGVRSHYAESVK | GQHGTYGVA showed 130 nM (1 of 6 replicates; controls 0 of 18). With GFDLEDYGIS | VIYADGKRTAYADSVK | GNVAGTFDQ the result was 540 pM (6 of 6 replicates; controls 0 of 18). The variant GFDLNEYGIS | VIYADGVRTAYTDSVK | GNVAGTFDV gave 320 pM (6 of 6 replicates; controls 0 of 18). The variant GQNLDEYGIS | VIYADGMRKWYADDVK | GISSGFVII showed no signal (0 of 6 replicates; controls 0 of 18).

The variant GFDLNEYGIS | VIYADGMRTAYADSVK | GANAGTFDM showed 130 pM (6 of 6 replicates; controls 1 of 18). For GFDLNEYGIS | VIYADGMRSAYADSVK | GNVAGTFDT, the assay gave 270 pM (6 of 6 replicates; controls 1 of 18). With GFGIEEYGIS | VIYADGVRKAYQNSFK | GEVGGTFVN the result was 530 pM (6 of 6 replicates; controls 0 of 18). With GFDLDEYGIS | VIYADGIRTHYSNSVK | GTIGGTFFQ the result was 8.5 nM (4 of 6 replicates; controls 0 of 18).

The 7 strongest on average among those seen in every replicate, once more:

CDR-H1,CDR-H2,CDR-H3,Kd (apparent),replicates with signal,signal with controls
GFDLNEYGIS,VIYADGMRTAYADSVK,GANAGTFDM,130 pM,6/6,1/18
GFDLNEYGIS,VIYADGLRTAYADSVK,GNVAGTFDL,160 pM,6/6,1/18
GFDLNEYGIS,VIYADGQRKAYADSVK,GNQAGTFDV,190 pM,6/6,0/18
GFDLESYGIS,VIYADGSRTAYADSVK,GNVAGTFDL,220 pM,6/6,0/18
GFDLNEYGIS,VIYADGQRTFYADSVK,GNTAGTFDV,270 pM,6/6,0/18
GFDLNEYGIS,VIYADGMRSAYADSVK,GNVAGTFDT,270 pM,6/6,1/18
GFNLNEYGIS,VIYADGKRTFYADSVK,GEVAGTFDV,300 pM,6/6,0/18

A sequence measured in both rounds can read differently, since the two assays cover different ranges.
In the paper, a design with two or fewer of six values counts as a poor binder.

Values reported by Li et al. 2023, doi:10.1038/s41467-023-39022-2 (FLAb copy).